Measured values as given in US4764603A, “Stable salts of S-adenosyl-L-methionine with polyanions” (priority 1985, dated 1988).

Tests used:
[1] = Excerpt: The liquors are removed by simple decantation and the precipitate is washed twice with 10 l of distilled H2 O while keeping the system under strong stirring.
[2] = rat, in vivo, 10 mg/kg

polyphosphate
solubility in water at pH <4 / acid medium [1]: insoluble in acidic medium
absorption at the gastric level [2]: not absorbed
absorption of radioactivity relative to SAM sulfate [2]: superimposable to what is found for SAM sulfate
gastric residence time relative to SAM-sulfate [2]: shorter than SAM-sulfate
residence time at the gastric level [2]: less than 2 hours
